Patent publication US20230023414A1, “METHODS AND DEVICES FOR TREATING A DISEASE WITH BIOTHERAPEUTICS” (PROGENITY, INC., priority 2018, published 2023)

Tests used:
[1] = Pharmacokinetics (blood insulin) of regular human insulin (NOVOLIN R) after subcutaneous or intra-jejunal jet delivery in swine; type: in vivo, Yorkshire female swine; conditions: individual animals
Procedure: A study was carried out to compare the pharmacokinetics (PK) and pharmacodynamics (PD) of regular human insulin (NOVOLIN® R) in swines after subcutaneous (SC) administration or intra-jejunal (IJ) administration via a single nozzle jet delivery device.
A total of 18 Yorkshire female swine in good health and weighing 60-70 kg each were included in this study. Swine were divided into two groups with 9 animals per group. All 9 animals in group 01 were administered a single subcutaneous injection of insulin aspart (NOVOLIN® R) (˜40 U) on one side of the neck at a depth of ˜5 mm. A sham surgical laparotomy was performed. All 9 animals in group 02 were administrated regular human insulin (NOVOLIN® R) (˜40 U) delivered in the proximal jejunum by a jet delivery device placed by surgical laparotomy. The jet delivery device was configured with the single nozzle in an axial orientation. […]
Blood samples were kept on wet ice until centrifugation and separation of plasma. […] Glucose was monitored every five (5) minutes during the study by portable glucose analyzer (StatStrip (SS) hospital glucose monitoring system (Nova Biomedical, Waltham, Mass.)). At each time point, approximate 0.1 mL of blood was drawn and immediately placed on a glucose monitoring test strip, and the whole blood glucose concentration was measured by the SS in triplicate. […]

[2] = cited from earlier work

## Novolin® R: regular human insulin (recombinant), aqueous solution 100 units/mL with glycerol, metacresol, zinc chloride, pH 7.4
[1]; IJ administration by jet delivery device
  Tmax: 1.25 h
[1]; SC administration
  Tmax: 1.25 h

## abatacept
[2]; SC administration
  Approved Dosing Info: Bio Avail: 79%

## interferon beta-1a
[2]; IM administration
  Approved Dosing Info: Bio Avail: 40%

Where two headings read alike, the source gives them in different places.
